# Reference: PubChem BioAssay AID2472 (National Center for Advancing Translational Sciences (NCATS), 2010)
# The list shows a part of the results, in another mix than the full data. Activity calls are given as the source filed them. No stated cut-off is given here; in the data, active means activity change below about -30%; inactive means the rest, inconclusive results apart.
# Test: qHTS Assay for Inhibitors of Fructose-1,6-bisphosphate Aldolase from Giardia Lamblia: Coupling assay counterscreen
# Conditions: coupling enzyme system counterscreen, AmpLite Red fluorescence; at 58.2 µM (top of the series)
# Excerpt: MLPCN Grant: MH085699-01 Assay Provider: Osnat Herzberg, University of Maryland NCGC Assay Overview: The objective of this project is to obtain compounds that inhibit Giardia lamblia growth. G. lamblia is a human pathogen which afflicts impoverished nations; it is the most common cause of outbreaks of diarrhea in the United States. During the course of our study of potential drug targets in Giardia, we have identified the Class II (Zn2+ functions in electrophilic catalysis) fructose-1,6-bisphosphate aldolase (FBPA) as an excellent candidate for drug targeting. FBPA is a key glycolytic pathway enzyme, essential for G. lamblia survival. The human FBPA belongs to the Class I aldolases, which have a different substrate binding site structure and a radically different catalytic mechanism (employing a lysine-Schiff base intermediate). Therefore, affinity-based or mechanism-based inhibitors of the Giardia FBPA are expected not to interfere with the catalytic function of the human FBPA. A glyceraldehyde-3-phosphate dehydrogenase/triose phosphate isomerase/NAD/arsenate coupled assay was adapted to the 1536-well HTP format for use in the primary screen. This was done by coupling it to a diaphorase/resazurin/resorufin reaction that can be monitored by fluorescence (excitation, 544 nm; emission, 590 nm). Compounds identified in this screen will be further evaluated by coupling the […]/triose phosphate isomerase/NADH assay to a phenazine methosulfate/tetranitroblue tetrazolium color reaction. False positives due to the dehydrogenases and diaphorase inhibition will be eliminated, and selectivity assay will triage inhibitors of mammalian triose phosphate isomerase and the Class I FBPA. G. lamblia FBPA inhibitors identified by the in vitro analyses will be examined for growth inhibition of Giardia trophozoites, and for cytotoxicity in human cells. This assay specifically addresses whether activity observed in the primary screen (AID 2451) is related to inhibition of the coupling assay used, as opposed to inhibition of aldolase. Actives in this assay are considered inconclusive for activity against aldolase.
# NCGC Assay Protocol: Step,Parameter,Value,Description 1,Coupling enzyme reagent,2 uL,glyceraldehyde-3-phosphate 2,Compound,23 nL,3.68 nM-57.5 uM final concentration 3,Time,10 min,RT Incubation 4,Substrate/detection Reagent,2 uL,Substrate + enzyme coupling system + AmpLite Red kit 5,Time,20 min,RT Incubation 6,Detector,525 nm/598 nm (Fluorescence),ViewLux Fluorescence Read (Read 1) Notes: 1,Medium-binding black solid-bottom Kalypsys plates. FRD or Kalypsys dispenser. 2,Compound Library (10 mM ,1:5 dilution). Pin-transferred for a [final] range of 3.68 nM-57.5 uM. 3,RT incubation 4,FRD or Kalypsys dispenser, 2 uL of reaction mixture. Bottle kept at 4C and covered in foil to protect from light. 5,RT incubation 6,ViewLux Protocol 1194; Excitation filter wheel A (525/20 Pol; BODIPY TMR FP), Emission filter wheel B (598/25 S; BODIPY TMR FP S). Keywords: Fructose-bisphosphate aldolase, FBPA , Giardia lamblia , Giardia, HTS, Inhibitors
# On the % scale 0 is the no-effect control and ±100 the full control effect.
row,SMILES,"activity change, negative = inhibition"
1,CCN(CC)CCCOC(=O)C(O)(c1ccccc1)c1ccccc1,inactive: 3.88%
2,CCOC(=O)c1ccc(NP(C)(=O)Oc2ccccc2)cc1 (configuration not stated),inactive: -1.03%
3,Cc1ccc(NP(C)(=O)Oc2ccccc2)c(C)c1 (configuration not stated),inactive: 3.69%
4,COc1ccccc1OP(C)(=O)Nc1ccc(C)cc1 (configuration not stated),inactive: 0.934%
5,COc1ccc(OP(C)(=O)Nc2cccc(F)c2)cc1 (configuration not stated),inactive: -0.926%
6,COc1ccccc1OP(C)(=O)Nc1cc(Cl)ccc1C (configuration not stated),inactive: 0.809%
7,Cc1cc(C)cc(OP(C)(N)=O)c1 (configuration not stated),inactive: -1.17%
8,O=C(O)C1(O)c2ccccc2-c2ccccc21,inactive: -0.245%
9,Cc1cccc(C)c1OP(C)(N)=O (configuration not stated),inactive: 0.903%
10,O=C(O)C(O)(c1ccccc1)c1ccccc1,inactive: 0.191%
11,CC(C)(C)c1ccc(OP(C)(=O)Nc2ccc(SC(F)(F)F)cc2)cc1 (configuration not stated),inactive: -3.93%
12,O=[N+]([O-])c1ccc2c(c1)C=Nc1ccccc1O2,inactive: -16.1%
13,CP(=S)(Nn1cnnc1)Oc1ccccc1 (configuration not stated),inactive: 1.68%
14,COc1ccccc1OP(C)(=O)Nc1ccccc1 (configuration not stated),inactive: 2.49%
15,CP(=O)(Nc1ccccc1Br)Oc1ccccc1 (configuration not stated),inactive: -2.75%
16,CCOP(C)(=S)SCC(=O)NC(C)C(=O)O (configuration not stated),inactive: 5.72%
17,CCOC(=O)c1ccc(NP(C)(=O)Oc2ccc(OC)cc2)cc1 (configuration not stated),inactive: -0.289%
18,CP(=O)(Nc1ccccn1)Oc1ccc(Cl)cc1 (configuration not stated),inactive: 2.51%
19,CP(=O)(Oc1ccccc1)OC(c1ccccc1)C(F)(F)F (configuration not stated),inactive: 0.352%
20,Cc1cccc(C)c1OP(C)(=O)Nc1ccc(SC(F)(F)F)cc1 (configuration not stated),inactive: -3.07%
21,CP(=O)(Nc1ccc(SC(F)(F)F)cc1)Oc1ccc(Cl)cc1 (configuration not stated),inactive: 3.08%

row,SMILES,"activity change, negative = inhibition"
1,Cc1cc(C)cc(OP(C)(=O)Nc2ccc(SC(F)(F)F)cc2)c1 (configuration not stated),inactive: -1.89%
2,CP(=O)(NC(=O)Nc1ccccc1)Oc1ccccc1 (configuration not stated),inactive: 0.0857%
3,CCc1ccc(OP(C)(=O)N2CCN(c3ccc([N+](=O)[O-])cc3)CC2)cc1 (configuration not stated),inactive: 0.994%
4,Cc1nc2ccc3ccccc3c2s1.O=[N+]([O-])c1cc([N+](=O)[O-])c(O)c([N+](=O)[O-])c1,inactive: 13%
5,O=[N+]([O-])c1cc([N+](=O)[O-])c(-n2nnc3ccccc32)c([N+](=O)[O-])c1,inactive: 19.9%
6,CC(C)N(CCCl)C(C)C,inactive: 0.671%
7,COc1ccccc1OP(C)(=O)Nc1c(C)cccc1C (configuration not stated),inactive: 0.482%
8,CN1CCCCC1COC(=O)C1(O)c2ccccc2CCc2ccccc21 (configuration not stated),inactive: 2.99%
9,CCCOc1ccc(NP(C)(=O)Oc2ccc(Cl)cc2)cc1 (configuration not stated),inactive: 1.68%
10,CP(=O)(Nc1ccc(SC(F)(F)F)cc1)Oc1ccccc1 (configuration not stated),inactive: -1.87%
11,O=[N+]([O-])c1cc([N+](=O)[O-])c(Nc2nnnn2CCO)c([N+](=O)[O-])c1,inactive: 0.13%
12,O=[N+]([O-])OCC(CO[N+](=O)[O-])(CO[N+](=O)[O-])CO[N+](=O)[O-],inactive: 0.0496%
13,CC1=NCCc2c1[nH]c1ccccc21.O=[N+]([O-])c1cc([N+](=O)[O-])c(O)c([N+](=O)[O-])c1,inactive: 8.62%
14,Cc1cc(C)cc(OP(C)(=O)Nc2ccccn2)c1 (configuration not stated),inactive: -0.419%
15,CP(=O)(Nc1cccc(Br)c1)Oc1ccccc1 (configuration not stated),inactive: -7.64%
16,Cc1ccc(C)c(NP(C)(=O)Oc2ccccc2)c1 (configuration not stated),inactive: -1.3%
17,COc1ccccc1OP(C)(=O)Nc1cccc(Br)c1 (configuration not stated),inactive: -0.19%
18,Cc1cc(C)cc(OP(C)(=O)Nc2ccc(C)cc2C)c1 (configuration not stated),inactive: 5.5%
19,CCOC(=O)c1ccc(NP(C)(=O)Oc2cc(C)cc(C)c2)cc1 (configuration not stated),inactive: 3.91%
20,O=C(OCCN1CCN(CCOCc2ccccc2)CC1)C(O)(c1ccccc1)c1ccccc1,inactive: -0.279%
21,CC(C)c1ccc(OP(C)(=O)Nc2ccc(SC(F)(F)F)cc2)cc1 (configuration not stated),inactive: -1.1%

row,SMILES,"activity change, negative = inhibition"
1,CP(=O)(Nc1ccccc1F)Oc1ccccc1 (configuration not stated),inactive: -0.69%
2,CCN(CC)CCCOC(=O)C(O)(c1ccccc1)C1CCCCC1 (configuration not stated),inactive: 3.36%
3,CCCCCOc1ccc(NP(C)(=O)Oc2ccc(Cl)cc2Cl)cc1 (configuration not stated),inactive: -7.57%
4,CP(=O)(Nc1ccccc1)Oc1ccc(F)cc1 (configuration not stated),inactive: 0.178%
5,COc1ccc(OP(C)(=O)Nc2ccc(SC(F)(F)F)cc2)cc1 (configuration not stated),inactive: 0.435%
6,CCOC(=O)c1ccc(NP(C)(=O)Oc2ccc(F)cc2)cc1 (configuration not stated),inactive: -3.77%
7,Cc1cc(-c2cccc3ccccc23)c(C)cn1.O=[N+]([O-])c1cc([N+](=O)[O-])c(O)c([N+](=O)[O-])c1,inactive: 6.54%
8,O=[N+]([O-])c1ccc(OP2(=O)COCCO2)cc1 (configuration not stated),inactive: 1.18%
9,COc1ccc(OP(C)(=O)Nc2cccc(Br)c2)cc1 (configuration not stated),inactive: -1.78%
10,COc1ccc(NP(C)(=O)Oc2ccccc2OC)cc1 (configuration not stated),inactive: 1.45%
11,CN(C)CCOC(=O)C(O)(c1ccccc1)C1CCCCC1 (configuration not stated),inactive: 1.73%
12,CP(=O)(Nc1ccc2c(c1)OCCO2)Oc1ccccc1 (configuration not stated),inactive: 2.67%
13,Cc1ccccc1NP(C)(=O)Nc1ccccc1C,inactive: 2.08%
14,CCN(CCCl)Cc1ccccc1C,inactive: 0.3%
15,CP(=O)(Nc1ccc(SC(F)(F)F)cc1)Oc1ccc(F)cc1 (configuration not stated),inactive: -0.428%
16,CCOP(C)(=S)SCC(=O)NC(C)(CC)C(=O)O (configuration not stated),inactive: 0.319%
17,COc1ccccc1OP(C)(=O)Nc1ccccc1Br (configuration not stated),inactive: -1.03%
18,CC(C)(C)c1ccc(OP(C)(=O)O)cc1,inactive: 9.08%
19,COc1ccc(OP(C)(=O)Nc2ccc(Br)cc2)cc1 (configuration not stated),inactive: 2.03%
20,CCN(CC)CC(O)COC(=O)C(O)(c1ccccc1)C1CCCCC1 (configuration not stated),inactive: -0.874%
21,CCc1ccc(OP(C)(=O)Nc2cccnc2)cc1 (configuration not stated),inactive: 4.01%

row,SMILES,"activity change, negative = inhibition"
1,CP(=O)(Oc1ccccc1)N1CCOC1=O (configuration not stated),inactive: 3.17%
2,OCCSCCO,inactive: 3.57%
3,O=C(OCCCN1CCCC1)C(O)(c1ccccc1)C1CCCCC1 (configuration not stated),inactive: 0.883%
4,COc1ccccc1OP(C)(=O)Nc1c(C)n(C)n(-c2ccccc2)c1=O (configuration not stated),inactive: 1.94%
5,C/C1=C2N=C(/C=C3N=C(/C(C)=C4\[N-][C@@](C)([C@H]5N=C1[C@@](C)(CCC(=O)NC[C@H](C)OP(=O)([O-])O[C@@H]1[C@H](O)[C@H](n6cnc7cc(C)c(C)cc76)O[C@@H]1CO)[C@@H]5CC(N)=O)[C@](C)(CC(N)=O)[C@H]4CCC(N)=O)[C@@](C)(CC(N)=O)[C@@H]\3CCC(N)=O)C(C)(C)[C@@H]/2CCC(N)=O.[C-]#N.[Co+3],inactive: 0.562%
6,CP(=O)(OC12CC3CC(CC(C3)C1)C2)OC12CC3CC(CC(C3)C1)C2,inactive: 0.394%
7,CCOC(=O)c1ccc(NP(C)(=O)Oc2ccc(Cl)cc2)cc1 (configuration not stated),inactive: 1.83%
8,CP(=O)(Nc1ccc(Cl)cc1Cl)Oc1ccccc1 (configuration not stated),inactive: -2.43%
9,CP(=O)(OCCOc1ccccc1)OCCOc1ccccc1,inactive: 0.631%
10,Cc1cc(C)cc(OP(C)(=O)Nc2cccc(C(F)(F)F)c2)c1 (configuration not stated),inactive: -4.11%
11,COc1ccc(OP(C)(=O)Nc2ccccc2Br)cc1 (configuration not stated),inactive: -0.0387%
12,COc1ccccc1OP(C)(=O)Nc1ccc(C)c(C)c1 (configuration not stated),inactive: -0.967%
13,Cc1c(NP(C)(=O)Oc2ccc(C(C)C)cc2)c(=O)n(-c2ccccc2)n1C (configuration not stated),inactive: -0.384%
14,CCc1ccc(OP(C)(=O)O)cc1,inactive: 1.09%
15,COc1ccccc1OP(C)(=O)Nc1ccc(C)cc1C (configuration not stated),inactive: 0.31%
16,CP(=O)(Nc1ccccn1)Oc1ccccc1 (configuration not stated),inactive: 1.69%
17,COc1ccccc1OP(C)(=O)Nc1ccc(Br)cc1 (configuration not stated),inactive: -1.46%
18,CN(C)CCOC(=O)C(O)(c1ccccc1)C1CCCC1 (configuration not stated),inactive: 2.44%
19,COc1ccc(OP(C)(=O)Nc2ccccn2)cc1 (configuration not stated),inactive: -0.211%
